Measured values reported in US6818646B2 (priority 2000, dated 2004).

target: T1, PDEV (Homo sapiens, UniProt O76074); experiment: PDE assay: inhibition of PDEV isolated from human tissue; format: biochemical; conditions: PDEV inhibitory activity

Structure (SMILES) | IC50 [nM]
COc1ccc(-c2cnc(N3Cc4c([nH]c5ccccc5c4=O)C3c3ccc4c(c3)OCCO4)nc2)cc1 (stereo not shown) | 0.52
O=C(Cc1cccnc1)N1Cc2c([nH]c3ccccc3c2=O)C1c1ccc2c(c1)OCO2 (stereo not shown) | 95.1
O=C(NCc1ccncc1)N1Cc2c([nH]c3ccccc3c2=O)C1c1ccc2c(c1)OCO2 (stereo not shown) | 40.5
O=C(c1ccc(-c2ccc(CO)cc2)o1)N1Cc2c([nH]c3ccccc3c2=O)C1c1ccc2c(c1)OCO2 (stereo not shown) | 1.22
O=C(c1ccccc1)N1Cc2c([nH]c3ccccc3c2=O)C1c1ccc2c(c1)OCO2 (stereo not shown) | 51.5
O=C(OCc1ccccc1)N1Cc2c([nH]c3ccccc3c2=O)C1c1ccc2c(c1)OCO2 (stereo not shown) | 2.12
O=C(O)c1ccc(COC(=O)N2Cc3c([nH]c4ccccc4c3=O)C2c2ccc3c(c2)OCO3)cc1 (stereo not shown) | 1.56
O=C(c1ccc(-c2cccc(C(F)(F)F)c2)o1)N1Cc2c([nH]c3ccccc3c2=O)C1c1ccc2c(c1)OCO2 (single isomer, unassigned) | 0.66
O=C(O)c1ccc(COC(=O)N2Cc3c([nH]c4ccccc4c3=O)C2c2ccc3c(c2)CCO3)cc1 (stereo not shown) | 3.31
O=C(O)c1ccc(CCC(=O)N2Cc3c([nH]c4ccccc4c3=O)C2c2ccc3c(c2)OCO3)cc1 (stereo not shown) | 3.4
O=C(c1cc2ccc(OCc3ccccc3)cc2o1)N1Cc2c([nH]c3ccccc3c2=O)C1c1ccc2c(c1)OCO2 (stereo not shown) | 1.43
COc1ccc(-c2cnc(N3Cc4c([nH]c5ccccc5c4=O)C3c3ccsc3)nc2)cc1OC (stereo not shown) | 4.13
O=C(Cc1ccncc1)N1Cc2c([nH]c3ccccc3c2=O)C1c1ccc2c(c1)OCO2 (stereo not shown) | 87
COc1ccc(-c2cnc(N3Cc4c([nH]c5ccccc5c4=O)[C@H]3c3ccc4c(c3)CCO4)nc2)cc1 [Compound 66, (R)-1,2,3,4-Tetrahydro-2-[5-(4-methoxyphenyl)-pyrimidin-2-yl]-3-(2,4-dihydrobenzofuranyl)-9H-pyrrolo-[3,4-b]quinolin-9-one] | 0.17
O=C(c1ccc(-c2cccc(CO)c2)o1)N1Cc2c([nH]c3ccccc3c2=O)C1c1ccc2c(c1)OCO2 (stereo not shown) | 0.56
O=C(c1ncc[nH]1)N1Cc2c([nH]c3ccccc3c2=O)C1c1ccc2c(c1)CCO2 (stereo not shown) | 14.3
O=C(OCc1ccncc1)N1Cc2c([nH]c3ccccc3c2=O)[C@@H]1c1ccc2c(c1)OCO2 | 2.71
CN(C)c1ccc(-c2ccc(C(=O)N3Cc4c([nH]c5ccccc5c4=O)C3c3ccc4c(c3)OCO4)o2)cc1 (stereo not shown) | 2.05
O=C(c1cc2ccccc2o1)N1Cc2c([nH]c3ccccc3c2=O)C1c1ccc2c(c1)CCO2 (stereo not shown) | 1.02
COc1ccc(-c2cnc(N3Cc4c([nH]c5ccccc5c4=O)[C@@H]3c3ccc4c(c3)CCO4)nc2)cc1 | 2.42
O=c1c2c([nH]c3ccccc13)C(c1ccc3c(c1)CCC3)N(c1ncc(-c3ccc4c(c3)OCO4)cn1)C2 (stereo not shown) | 1.14
O=C(C=Cc1ccccc1)N1Cc2c([nH]c3ccccc3c2=O)C1c1ccc2c(c1)OCO2 (stereo not shown) | 0.54
CSc1ccc(-c2ccc(C(=O)N3Cc4c([nH]c5ccccc5c4=O)C3c3ccc4c(c3)OCO4)o2)cc1 (stereo not shown) | 0.952
O=C(O)c1ccc(-c2ccc(C(=O)N3Cc4c([nH]c5ccccc5c4=O)C3c3ccc4c(c3)OCO4)o2)cc1 (stereo not shown) | 1.05
COC(=O)c1ccc(COC(=O)N2Cc3c([nH]c4ccccc4c3=O)C2c2ccc3c(c2)CCO3)cc1 (stereo not shown) | 2.88
COC(=O)c1ccc(CCC(=O)N2Cc3c([nH]c4ccccc4c3=O)C2c2ccc3c(c2)OCO3)cc1 (stereo not shown) | 11.2

target: PDEV (Oryctolagus cuniculus, UniProt G1SX67); experiment: PDE assay: inhibition of PDEV isolated from rabbit tissue; conditions: PDEV inhibitory activity, rabbit tissue (footnote a)

Structure (SMILES) | IC50 [nM]
O=c1c2c([nH]c3ccccc13)[C@H](c1ccc3c(c1)OCO3)N(Cc1ccccc1)C2 | 6880

target: T1, PDEV; experiment: In vitro determination of Ki for phosphodiesterase inhibitors; conditions: human tissue; given as 'Ki ='

Structure (SMILES) | Ki [nM]
O=c1c2c([nH]c3ccccc13)C(c1ccc3c(c1)CCO3)N(c1ccc(Br)cn1)C2 (stereo not shown) | 1.55
